Assay results from paper PMC5520654 (Journal of immunology (Baltimore, Md. : 1950), 2017).

System: mice with CFA-induced inflammation
Settings: mouse, in vivo

For “[^18F]fluoro-2-deoxy-2-D-glucose [FDG, reference compound]”, which “Inflamed paw (SUVmean)” value is on record?
Its value is 1.5 ± 0.1.

And the Inflamed paw/muscle ratio?
The Inflamed paw/muscle ratio was 21.4 ± 3.6.
